Test results published in PMC12684391, “Mechanistic insights into the monotherapy and combination potential of FEN1 inhibition in cancer therapy” (Nucleic Acids Research, 2025).

System: DLD-1 BRCA2KO cells
Assay: Combination viability assay (CTG, Bliss synergy)
Format: cell-based
Conditions: 7 days
Procedure: For combination analysis, cells were seeded in 70 μl of media in 384-well plates pre-dosed with compounds (5-point dose–response matrix) with a D300e digital dispenser (Tecan). Cell proliferation was determined after 7 days using CTG. Analysis was performed with Genedata Screener (Compound Synergy Extension) to determine Synergy scores (Bliss model), using a formulation whereby the Blissexcess is a continuous value and values higher than 2 are usually considered synergistic, and values between 0 and 2 are usually considered additive.

## CN(C)CCCOc1ccc(-c2ccc3ncc4c(c3c2)n(C2CCOCC2)c(=O)n4C)cn1 [AZD0156]
  Combination effect with MSC778: no benefit was observed
